These results are taken from paper PMC9969397, “Rhenium(V) Complexes as Cysteine-Targeting Coordinate Covalent Warheads” (Journal of Medicinal Chemistry, 2023).

The nature of the series: Aqueous solubility test by dynamic light scattering. As to conditions: 200 μM, 2% DMSO in phosphate-buffered saline. Format: physicochemical. The method, then:
The aqueous solubility of the metal complexes was assessed by dynamic light scattering. The metal complexes were dissolved in DMSO at a concentration of 10 mM. The stock solutions were diluted with phosphate-buffered saline (PBS) buffer to a dilution of 2% DMSO and a compound concentration of 200 μM. The resulting solutions were analyzed by dynamic light scattering (DLS) using a Malvern Instruments Zetasizer Nano apparatus. […] Zinc oxide, which readily precipitates in an aqueous solution, was used as a positive control.

For “ReO(2,2′-thiodiethanethiol)(chloride) [Compound 1]”, the “aqueous solubility (dynamic light scattering)” value is recorded as “No aggregation or particle formation was observed”.
